Measurements reported in ChEMBL document CHEMBL1157594, “Synthesis and evaluation of a set of 4-phenylpiperidines and 4-phenylpiperazines as D2 receptor ligands and the discovery of the dopaminergic stabilizer 4-[3-(methylsulfonyl)phenyl]-1-propylpiperidine (huntexil, pridopidine, ACR16)” (J Med Chem, 2010).

Amino acid sequences for entries named in this document (tags omitted).
UniProt P14416, whole entry: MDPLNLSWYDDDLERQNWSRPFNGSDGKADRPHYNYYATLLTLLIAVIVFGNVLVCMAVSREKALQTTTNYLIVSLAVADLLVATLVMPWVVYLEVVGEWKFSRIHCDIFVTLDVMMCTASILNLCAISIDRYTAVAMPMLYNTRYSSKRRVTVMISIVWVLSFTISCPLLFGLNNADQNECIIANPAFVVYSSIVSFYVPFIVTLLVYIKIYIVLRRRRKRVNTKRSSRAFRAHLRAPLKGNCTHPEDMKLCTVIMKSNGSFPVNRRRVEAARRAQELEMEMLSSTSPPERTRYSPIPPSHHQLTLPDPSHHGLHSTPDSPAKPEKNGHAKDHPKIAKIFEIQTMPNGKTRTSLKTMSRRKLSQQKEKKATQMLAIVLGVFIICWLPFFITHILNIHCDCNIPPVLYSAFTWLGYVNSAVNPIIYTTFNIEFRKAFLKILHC

How the values were obtained:
[1] = molecular target: T1, D(2) dopamine receptor (Homo sapiens, UniProt P14416); test: biochemical; type: cell-based, HEK293
[2] = molecular target: T1, D(2) dopamine receptor; test: biochemical; type: cell-based, HEK293; remark: listed apart in the source

CCCN1CCC[C@@H](c2cccc(O)c2)C1 [PRECLAMOL]
Ki [1]: 2270 nM | Ki [2]: 17.4 nM
